Measured values as given in US5929063A, “Mercapto and seleno derivatives as inhibitors of nitric oxide synthase” (priority 1995, dated 1999).

Molecular target: T1, ecNOS (Bos taurus, UniProt P29473)
T1 construct: the intimal surface of fresh bovine aortae was scraped and homogenized; from tissue; host or cells: homogenate of intimal scrapings of fresh bovine aortae
Assay: ecNOS activity from intimal scrapings of fresh bovine aortae (conversion of [3H]-L-arginine to [3H]-L-citrulline)
Type: biochemical
Method: The intimal surface of fresh bovine aortae was scraped in the presence of homogenation buffer composed of 50 mM Tris-HCl, 0.1 mM ethylenediamine tetraacetic acid (EDTA) and 0.1 mM ethyleneglycol bis (beta-aminoethyl ether) (EGTA). Conversion of [^3 H]-L-arginine to [^3 H]-L-citrulline was measured in the homogenates as follows: cell homogenate (50 μl) was incubated in the presence of [^3 H]-L-arginine (10 μM, 5 kBq/tube), NADPH (2 mM), calmodulin (30 nM), tetrahydrobiopterin (5 μM) and calcium (2 mM) for 20 minutes at 37° C. in N-2-hydroxethyl piperazine-N-2-ethane sulfonic acid (HEPES) buffer (pH 7.5). Reactions were stopped by dilution with 1 ml of ice cold HEPES buffer (pH 5.5) containing EGTA (2 mM) and EDTA (2 mM). Reaction mixtures were applied to Dowex 50W (Na^+ form) columns and the eluted [^3 H]-L-citrulline activity was measured by scintillation counting. bNOS activity was measured using similar methods in homogenates of whole rat brains.
For a preparation rich in ecNOS, the intimal surface of fresh bovine aortae was scraped and homogenized. The homogenization buffer was composed of 50 mM tris-HCL, 0.1 mM EDTA, 0.1 mM EGTA and 1 mM phenylmethylsulfonyl chloride (pH 7.4). […] Conversion of [^3 H]-L-arginine to [^3 H]-L-citrulline was measured in the homogenates as described in Example 3 above.

`CNC(=N)NCCC[C@H](N)C(=O)O` [L-NMA, N^G -Methyl-L-arginine, reference compound] was tested. Which EC50 did it give?
Its EC50 is 5 µM.
